# Reference: US20260382729A1, “HETEROBIFUNCTIONAL COMPOUNDS AS p53 ACETYLATORS” (published 2026)
# Key:
# [1] = test system: p21 protein level in BxPC3 cells; assay: p21 induction, Western blot, BxPC3 (Example 85)
# Protocol: Example 85. P21 Induction of p53Y220C Acetylators (FIG. 1)
# (§1) NCI-H1299 and BxPC3 cell lines were cultivated in RPMI-1640 medium while Huh7 cell line was supplemented in DMEM medium with 10% FBS, 100 units/mL of penicillin/streptomycin. NCI-H1299 stable cell line expressing p53Y220C-FLAG was cultivated in RPMI-1640 medium supplemented with 10% FBS, 100 units/mL of penicillin/streptomycin and G418 (500 g/mL).
# (§2) Cells were lysed on ice for 30 min with the lysis buffer (50 mM Tris pH 7.4, 1% IGEPAL CA-630, 150 mM NaCl, 1 mM EDTA, and 1 mM AESBF), supplemented with protease and phosphatase inhibitor cocktail (A32961, Thermo Fisher Scientific). The sample was centrifuged at 12 000 g for 10 min at 4 °C to get supernatant as cell lysate. The primary antibodies used were p53 (Cat #10442-1-AP, Proteintech), p21 (Cat #2947S, Cell Signaling Technology), acetyl-382 lysing p53 (p53382Kac) (Cat #2525L, Cell Signaling Technology), DYKDDDDK (FLAG) Tag (Cat #14793S, Cell Signaling Technology) and Vinculin (Cat #4650S, Cell Signaling Technology). LI-COR secondary antibodies (IRDye® Donkey anti-rabbit IgG) was used to obtain protein signals, which were then analyzed by Image Studio Lite software (LI-COR).
# [2] = test system: p53Y220C (p53-K382 acetylation); assay: p53-K382 acetylation in an IP assay (Example 86); settings: compared with DMSO and PK9323
# Excerpt: Example 86. P53-Acetylation of p53Y220C Acetylators (FIG. 2)
# Compared with DMSO and the p53Y220C small-molecule binder PK9323, NS131-8, NS131-9, NS131-10, NS131-11 and NS131-12 induced p53-K382 acetylation in an IP assay.
# as §1, §2
# [3] = test system: p21 protein expression in NCI-H1299 (p53Y220C) cells; assay: p21 protein expression, Western blot, NCI-H1299 (p53Y220C); settings: 5 μM, 24 h
# Protocol: (§3) FIG. 5. Design and testing of initial p53Y220C-targeting AceTACs. (A) Crystal structure of the p53Y220C-PK9323 complex (PDB ID: 6SI0).^25 The cross-section of the occupied binding pocket is highlighted and the structure of PK9323 is shown. […] . (D) Representative Western blot (WB) results of PK9323 and compounds 1-4 on inducing p21 protein expression from three independent experiments. H1299 (p53Y220C) stable cells were treated with the indicated compounds at the indicated concentrations for 24 h. (E) Chemical structure of compounds 5-9. (F) Representative WB results of compounds 5-9 on inducing p21 protein expression from three independent experiments. NCI-H1299 (p53Y220C) stable cells were treated with the indicated compounds at the indicated concentrations for 24 h. (G) Quantification of p21 induction (from panels 1D and 1F) by PK9323 and compounds 1-9 at 24 h time point, following 5 μM treatment (from three independent experiments). (H) Left, representative WB results of the p53K382ac level following the treatment with the indicated compounds at 5 μM for 8 h from three independent experiments. NCI-H1299 (p53Y220C) stable cells were treated with the indicated compounds for 8 h followed by endogenous immunoprecipitation (IP) FLAG pulldown. Right, quantification of the normalized p53K382ac level (p53K382ac level over total p53 protein level) following the treatment with the indicated compounds at 5 M for 8 h (from three independent experiments).
# To test these compounds, an NCI-H1299 cell line stably expressing the FLAG tagged p53Y220C mutant, NCI-H1299 (p53Y220C) was generated. The background NCI-H1299 cell line is a p53 null cell line. […] The lack of significant effects could be due to that the extra methyl group on the terminal amine and the amide functionality in compounds 1-4 might impact binding of these compounds to p53Y220C, based on the previously reported structure—activity relationship (SAR) results for the PK9323 series. 25, 26 Therefore, a second set of AceTACs, compounds 5-9 was designed, by removing the extra methyl group and amide functionality (FIG. 5E, Scheme S2). Compounds 5-9 increased the expression of p21 by about 2-fold compared to PK9323 at the same concentration (FIG. 5F-G). Particularly, compound 7 (PEG-3) at 5 μM induced the most significant acetylation of p53Y220C lysine 382 (p53K382ac) among these compounds (with PK9323 as a control) at 8 h treatment (FIG. 5H).
# NCI-H1299 (CRL-5803), BxPC3 (CRL-1687) and U-20S (HTB-96) were purchased from the American Tissue Culture Collection (ATCC, Manassas, VA). In addition, NUGC-3 were obtained from the Japan Health Science Research Resources Bank (JCRB, JCRB0822). […]
# [4] = test system: p53Y220C K382 acetylation (p53K382ac) in NCI-H1299 (p53Y220C) cells; assay: p53K382ac level, Western blot / FLAG pull-down, NCI-H1299 (p53Y220C); settings: 5 μM, 8 h, FLAG pulldown, PK9323 as control
# Protocol: as §3, with “NCI-H1299 (p53Y220C) stable cells were treated with the indicated compounds at the indicated concentrations for 24 h.” left out, “(H) Left, representative WB results of the p53K382ac level following the treatment with the indicated compounds at 5 μM for 8 h from three independent experiments. NCI-H1299 (p53Y220C) stable cells were treated with the indicated compounds for 8 h followed by endogenous immunoprecipitation (IP) FLAG pulldown.” left out
# FIG. 6. […] Right, quantification of the normalized p53K382ac level on the left. […] Right, quantification of normalized p300 and p53K382ac levels from three independent experiments shown on the left. […] Right, quantification of normalized p300 and p53K382ac levels from three independent experiments shown on the left. […]
# [5] = test system: p53Y220C (p53-K382 acetylation); assay: time-dependent p53Y220C acetylation, Western blot (Example 87); settings: 2 h to 24 h
# Protocol: Example 87. NS131-10 Induces Time-Dependent p53Y220C Acetylation (FIG. 3)
# NS131-10 induced p53-K382 acetylation starting from 2 h and more significant acetylation at 24 h.
# as §2
compound,measurement,setting,value
CCn1c2ccc(CNCCOCCn3cc(COc4ccc(CCc5nc6cc(-c7c(C)noc7C)ccc6n5CCN5CCOCC5)cc4F)nn3)cc2c2ccc(-c3cscn3)cc21,p21 protein level induction,[1],induced the p21 protein level in BxPC3 cells in a concentration-dependent manner
same,p53-K382 acetylation,[2],induced p53-K382 acetylation
CCn1c2ccc(CN(C)C(=O)CCOCCn3cc(COc4ccc(CCc5nc6cc(-c7c(C)noc7C)ccc6n5CCN5CCOCC5)cc4F)nn3)cc2c2ccc(-c3cscn3)cc21,p21 protein expression,[3],did not
CCn1c2ccc(CNCCOCCOCCn3cc(COc4ccc(CCc5nc6cc(-c7c(C)noc7C)ccc6n5CCN5CCOCC5)cc4F)nn3)cc2c2ccc(-c3cscn3)cc21,p21 protein level induction,[1],induced the p21 protein level in BxPC3 cells in a concentration-dependent manner
same,p53-K382 acetylation,[2],induced p53-K382 acetylation
CCn1c2ccc(CN(C)C(=O)CCOCCOCCn3cc(COc4ccc(CCc5nc6cc(-c7c(C)noc7C)ccc6n5CCN5CCOCC5)cc4F)nn3)cc2c2ccc(-c3cscn3)cc21,p21 protein expression,[3],did not
CCn1c2ccc(CNCCOCCOCCOCCn3cc(COc4ccc(CCc5nc6cc(-c7c(C)noc7C)ccc6n5CCN5CCOCC5)cc4F)nn3)cc2c2ccc(-c3cscn3)cc21,p21 protein level induction,[1],induced the p21 protein level in BxPC3 cells in a concentration-dependent manner
same,acetylation of p53Y220C lysine 382 (p53K382ac),[4],induced the most significant acetylation
same,"p53-K382 acetylation, time dependence",[5],induced p53-K382 acetylation starting from 2 h and more significant acetylation at 24 h
CCn1c2ccc(CNCCOCCOCCOCCOCCn3cc(COc4ccc(CCc5nc6cc(-c7c(C)noc7C)ccc6n5CCN5CCOCC5)cc4F)nn3)cc2c2ccc(-c3cscn3)cc21,p21 protein level induction,[1],induced the p21 protein level in BxPC3 cells in a concentration-dependent manner
same,p53-K382 acetylation,[2],induced p53-K382 acetylation
CCn1c2ccc(CN(C)C(=O)COCCOCCOCCn3cc(COc4ccc(CCc5nc6cc(-c7c(C)noc7C)ccc6n5CCN5CCOCC5)cc4F)nn3)cc2c2ccc(-c3cscn3)cc21,p21 protein level induction,[1],slightly induced the p21 protein level
same,p21 protein expression,[3],modestly increased p21 expression
CCn1c2ccc(CNCCOCCOCCOCCOCCOCCn3cc(COc4ccc(CCc5nc6cc(-c7c(C)noc7C)ccc6n5CCN5CCOCC5)cc4F)nn3)cc2c2ccc(-c3cscn3)cc21,p21 protein level induction,[1],induced the p21 protein level in BxPC3 cells in a concentration-dependent manner
same,p53-K382 acetylation,[2],induced p53-K382 acetylation
CCn1c2ccc(CN(C)C(=O)COCCOCCOCCOCCn3cc(COc4ccc(CCc5nc6cc(-c7c(C)noc7C)ccc6n5CCN5CCOCC5)cc4F)nn3)cc2c2ccc(-c3cscn3)cc21,p21 protein level induction,[1],slightly induced the p21 protein level
same,p21 protein expression,[3],modestly increased p21 expression
